Laboratory results published in article PMC11014987, “A hemoprotein with a zinc-mirror heme site ties heme availability to carbon metabolism in cyanobacteria” (Nature Communications, 2024).

Protein sequences, listed by entry. Tags and fused reporters are not part of them. Residues count along the entry.
UniProt P73129, 1-96: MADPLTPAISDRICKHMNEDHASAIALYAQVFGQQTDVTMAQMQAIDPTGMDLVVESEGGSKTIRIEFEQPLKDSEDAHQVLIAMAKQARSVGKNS

Molecular target: T1, Dri1 (Synechocystis sp. PCC 6803, UniProt P73129)
T1 construct: gene ssr1698
Experiment: UV-Vis heme titration (Soret), MCR-ALS and nonlinear fit
Type: binding

Compound: C=CC1=C(C)C2=Cc3c(C=C)c(C)c4[n]3[Fe]([Cl])[n]3c(c(C)c(CCC(=O)O)c3=CC3=NC(=C4)C(C)=C3CCC(=O)O)=CC1=N2 [hemin]
- Kd: 150 nM
